Experimental findings from patent US11446516B2, “Methods of increasing response to cancer radiation therapy” (THE TRUSTEES OF THE UNIVERSITY OF PENNSYLVANIA, priority 2013, dated 2022) are described below.

The test system of one data set is MCF10A cells. The data set is described as follows: MTT cell viability assay, MCF10A. It counts as cell-based. To be noted: 8 days. In general terms: Tetrazolium dyes change colour on reduction, which living cells bring about.
For data set [1], the system named is Akt, MAPK, GSK3-β, snail, slug, KLF4 in SK-BR-3 cells. The data set is described as follows: Western blot of erbB downstream signaling and Snail/Slug, SK-BR-3. It is filed as cell-based, human. A general note: In western blotting, separated proteins are transferred to a membrane and probed.
For the next data set, the system named is U87 cells. The data set is described as follows: MTT cell viability assay, U87. It counts as cell-based. To be noted: 8 days, IFN-γ dose-response.
The next data set has as its system MDA-MB-231 cells. Put plainly: MTT cell viability assay, MDA-MB-231. It counts as cell-based. To be noted: FIG. 43 / FIG. 55C.

Consider “IFN-β: recombinant human Interferon-beta”, for which the cell viability result in the data set on MCF10A cells is reported as “even low doses of IFN-β were cytotoxic to these cells”. For the same substance, in data set [1] (Western blot), the slug protein level result is “not slug” and the snail protein level result is given as “dramatically reduce snail”. Further, the “cell viability (cytotoxicity)” value in the data set on SK-BR-3 cells is recorded as “cytotoxic to tumor cells even at small doses”.

Turning to “C225: anti-EGFR mAb, also known as cetuximab”, the cell viability result with U87 cells is listed as “failed to respond”; in the data set on MDA-MB-231 cells it was “responded minimally”. Also, the Akt pathway activity result in data set [1] (24 hours (FIG. 20A, 20B)) was “but not C225”. In data set [1] (Western blot), the snail protein level result is listed as “but not C225”.
